Earlier results in patent publication US20120128665A1, “PRESELECTION OF SUBJECTS FOR THERAPEUTIC TREATMENT BASED ON HYPOXIC STATUS” (SYNTA PHARMACEUTICALS CORP., priority 2010, published 2012).

The chains behind the UniProt entries cited, without tags or fusion partners. Residues count along the entry.
UniProt P10721, 26-976, species assumed: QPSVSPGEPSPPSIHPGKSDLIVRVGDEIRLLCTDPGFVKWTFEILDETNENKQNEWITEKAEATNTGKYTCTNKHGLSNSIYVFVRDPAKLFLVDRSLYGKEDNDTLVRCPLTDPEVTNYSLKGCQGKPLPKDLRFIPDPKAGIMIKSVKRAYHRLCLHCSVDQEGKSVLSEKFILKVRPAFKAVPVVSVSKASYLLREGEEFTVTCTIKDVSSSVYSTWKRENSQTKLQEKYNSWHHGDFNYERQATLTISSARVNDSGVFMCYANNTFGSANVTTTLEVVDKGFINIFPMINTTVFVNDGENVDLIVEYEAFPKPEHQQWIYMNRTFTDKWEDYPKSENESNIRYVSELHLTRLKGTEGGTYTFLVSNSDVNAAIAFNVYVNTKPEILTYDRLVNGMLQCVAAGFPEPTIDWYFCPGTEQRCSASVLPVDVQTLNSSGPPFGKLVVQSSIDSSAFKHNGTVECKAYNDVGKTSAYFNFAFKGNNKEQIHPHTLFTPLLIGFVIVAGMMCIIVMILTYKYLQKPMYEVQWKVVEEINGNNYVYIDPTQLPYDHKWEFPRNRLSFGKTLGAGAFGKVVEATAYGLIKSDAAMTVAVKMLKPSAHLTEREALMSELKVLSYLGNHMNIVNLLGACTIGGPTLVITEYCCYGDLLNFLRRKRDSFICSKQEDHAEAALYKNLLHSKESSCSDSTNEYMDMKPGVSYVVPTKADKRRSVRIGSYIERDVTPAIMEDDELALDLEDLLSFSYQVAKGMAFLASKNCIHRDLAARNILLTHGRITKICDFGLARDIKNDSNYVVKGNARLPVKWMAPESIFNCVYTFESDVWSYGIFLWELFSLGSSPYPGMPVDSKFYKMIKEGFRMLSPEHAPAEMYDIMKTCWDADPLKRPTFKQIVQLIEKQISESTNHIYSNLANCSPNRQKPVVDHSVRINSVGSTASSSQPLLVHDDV

Biological target: Kit (Homo sapiens, UniProt P10721)
Settings: in vitro; cited from earlier work

Question: Which “ligand-induced autophosphorylation of Kit” value does the source give for Cediranib here?
Answer: inhibited
